Source: ChEMBL document CHEMBL5380837, “Structure-Activity Relationships of Truncated 1'-Homologated Carbaadenosine Derivatives as New PPARγ/δ Ligands: A Study on Sugar Puckering Affecting Binding to PPARs” (J Med Chem, 2023)

The compounds below were run against T1, Peroxisome proliferator-activated receptor delta (Homo sapiens) (UniProt Q03181) (assay: Binding affinity to PPARdelta (unknown origin) at 30 uM by TR-FRET based LanthaScreen competitive binding assay relative to control).
T1 sequence (whole entry): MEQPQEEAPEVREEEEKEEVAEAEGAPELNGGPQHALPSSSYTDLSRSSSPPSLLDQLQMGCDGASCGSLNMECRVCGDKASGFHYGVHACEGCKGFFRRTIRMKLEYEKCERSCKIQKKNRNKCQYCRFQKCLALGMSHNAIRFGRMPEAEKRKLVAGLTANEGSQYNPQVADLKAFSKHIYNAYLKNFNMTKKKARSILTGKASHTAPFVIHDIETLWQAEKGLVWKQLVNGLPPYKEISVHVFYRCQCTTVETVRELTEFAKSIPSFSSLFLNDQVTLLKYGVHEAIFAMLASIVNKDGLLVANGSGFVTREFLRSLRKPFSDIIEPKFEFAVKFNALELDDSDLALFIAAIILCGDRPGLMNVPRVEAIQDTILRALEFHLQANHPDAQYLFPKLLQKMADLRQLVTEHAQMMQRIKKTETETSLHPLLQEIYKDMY
`CCc1ccc(CCOc2ccc(CC3SC(=O)NC3=O)cc2)nc1` (stereo not given) was tested, and the Activity was 9.3%.

These compounds were tested against T2, Peroxisome proliferator-activated receptor alpha (Homo sapiens) (UniProt Q07869) (assay: Binding affinity to PPARalpha (unknown origin) at 30 uM by TR-FRET based LanthaScreen competitive binding assay relative to control).
T2 sequence (whole entry): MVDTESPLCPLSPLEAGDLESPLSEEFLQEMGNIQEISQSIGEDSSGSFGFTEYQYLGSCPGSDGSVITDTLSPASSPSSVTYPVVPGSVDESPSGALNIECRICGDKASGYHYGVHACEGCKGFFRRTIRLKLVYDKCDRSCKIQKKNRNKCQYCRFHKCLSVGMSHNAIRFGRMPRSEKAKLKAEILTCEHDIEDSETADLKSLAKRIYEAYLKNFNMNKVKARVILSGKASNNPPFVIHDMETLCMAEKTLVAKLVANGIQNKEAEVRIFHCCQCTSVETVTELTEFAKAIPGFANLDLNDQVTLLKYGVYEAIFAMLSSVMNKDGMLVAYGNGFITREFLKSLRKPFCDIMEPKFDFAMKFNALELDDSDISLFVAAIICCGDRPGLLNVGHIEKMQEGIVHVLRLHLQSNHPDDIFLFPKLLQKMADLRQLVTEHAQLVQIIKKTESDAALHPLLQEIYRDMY
Compound `O[C@@H]1C[C@@H]2C[C@]2(Cn2cnc3c(NCc4cccc(Cl)c4)nc(Cl)nc32)[C@@H]1O` has an Activity of 6.1%.
Compound `O[C@@H]1[C@H](O)C=C[C@H]1Cn1cnc2c(NCc3cccc(Br)c3)nc(Cl)nc21` has an Activity of 5.4%.
Work on `O[C@@H]1[C@H](O)[C@@H]2C[C@@H]2[C@H]1Cn1cnc2c(NCc3cccc(I)c3)nc(Cl)nc21` yielded an Activity of 7.3%.
`O[C@H]1[C@H](Cn2cnc3c(NCc4cccc(I)c4)nc(I)nc32)CC[C@H]1O` was tested, and the Activity was 13.8%.
Compound `O[C@@H]1[C@H](O)C=C[C@H]1Cn1cnc2c(NCc3cccc(I)c3)nc(Cl)nc21` has an Activity of 5.1%.
`O[C@@H]1[C@H](O)[C@@H]2C[C@@H]2[C@H]1Cn1cnc2c(NCc3cccc(I)c3)nc(I)nc21` was tested, and the Activity was 20.6%.
In the case of `O[C@@H]1[C@H](O)[C@@H]2C[C@@H]2[C@H]1Cn1cnc2c(NCc3cccc(C(F)(F)F)c3)nc(Cl)nc21`, the Activity is reported as 3%.
`O[C@@H]1C[C@@H]2C[C@]2(Cn2cnc3c(NCc4cccc(I)c4)nc(I)nc32)[C@@H]1O` gave an Activity of 2%.
Compound `O[C@@H]1[C@H](O)[C@@H]2C[C@@H]2[C@H]1Cn1cnc2c(NCc3cccc(Br)c3)nc(Cl)nc21` has an Activity of 11.6%.
`O[C@H]1[C@H](Cn2cnc3c(NCc4cccc(I)c4)nc(Cl)nc32)CC[C@H]1O` was tested, and the Activity was 6.5%.
For `O[C@H]1[C@H](Cn2cnc3c(NCc4cccc(Br)c4)nc(Cl)nc32)CC[C@H]1O`, the Activity was 14%.
With `O[C@@H]1[C@H](O)CS[C@H]1Cn1cnc2c(NCc3cccc(Cl)c3)nc(I)nc21` the Activity was 20.4%.
`O[C@@H]1C[C@@H]2C[C@]2(Cn2cnc3c(NCc4cccc(Br)c4)nc(Cl)nc32)[C@@H]1O` gave an Activity of 0.7%.
Compound `O[C@@H]1C[C@@H]2C[C@]2(Cn2cnc3c(NCc4cccc(I)c4)nc(Cl)nc32)[C@@H]1O` has an Activity of 3.9%.
